Where two headings read alike, the source gives them in different places.
Assays:
[1] = molecular target: T1, human insulin receptor (HIR) (Homo sapiens, UniProt P06213); assay: 125I-insulin competition binding assay on solubilised purified receptor; details: read-out: Kd (µM) HIR
T1 construct: made in house

Amino acid sequences for entries named in this document (tags omitted). Residues count along the entry.
UniProt P06213, 28-758 limits assumed: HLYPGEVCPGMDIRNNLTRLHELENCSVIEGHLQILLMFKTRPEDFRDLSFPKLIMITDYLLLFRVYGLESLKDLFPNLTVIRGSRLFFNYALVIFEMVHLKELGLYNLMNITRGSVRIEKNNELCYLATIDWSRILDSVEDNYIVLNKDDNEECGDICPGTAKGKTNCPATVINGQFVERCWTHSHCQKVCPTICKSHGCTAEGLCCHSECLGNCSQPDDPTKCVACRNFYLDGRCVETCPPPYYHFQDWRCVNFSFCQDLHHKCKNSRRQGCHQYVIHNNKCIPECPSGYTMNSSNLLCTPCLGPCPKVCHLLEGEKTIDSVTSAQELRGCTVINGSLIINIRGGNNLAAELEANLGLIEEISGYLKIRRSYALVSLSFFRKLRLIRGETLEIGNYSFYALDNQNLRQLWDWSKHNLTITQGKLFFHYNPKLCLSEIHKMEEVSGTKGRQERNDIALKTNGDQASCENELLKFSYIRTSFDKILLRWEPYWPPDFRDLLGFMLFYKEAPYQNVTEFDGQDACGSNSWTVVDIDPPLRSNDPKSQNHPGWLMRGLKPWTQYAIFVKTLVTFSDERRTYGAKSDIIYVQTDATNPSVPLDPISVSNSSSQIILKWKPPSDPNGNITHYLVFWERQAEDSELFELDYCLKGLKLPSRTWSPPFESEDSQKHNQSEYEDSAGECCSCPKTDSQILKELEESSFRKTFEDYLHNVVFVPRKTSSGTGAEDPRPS
UniProt P06213, 763-1382 limits assumed: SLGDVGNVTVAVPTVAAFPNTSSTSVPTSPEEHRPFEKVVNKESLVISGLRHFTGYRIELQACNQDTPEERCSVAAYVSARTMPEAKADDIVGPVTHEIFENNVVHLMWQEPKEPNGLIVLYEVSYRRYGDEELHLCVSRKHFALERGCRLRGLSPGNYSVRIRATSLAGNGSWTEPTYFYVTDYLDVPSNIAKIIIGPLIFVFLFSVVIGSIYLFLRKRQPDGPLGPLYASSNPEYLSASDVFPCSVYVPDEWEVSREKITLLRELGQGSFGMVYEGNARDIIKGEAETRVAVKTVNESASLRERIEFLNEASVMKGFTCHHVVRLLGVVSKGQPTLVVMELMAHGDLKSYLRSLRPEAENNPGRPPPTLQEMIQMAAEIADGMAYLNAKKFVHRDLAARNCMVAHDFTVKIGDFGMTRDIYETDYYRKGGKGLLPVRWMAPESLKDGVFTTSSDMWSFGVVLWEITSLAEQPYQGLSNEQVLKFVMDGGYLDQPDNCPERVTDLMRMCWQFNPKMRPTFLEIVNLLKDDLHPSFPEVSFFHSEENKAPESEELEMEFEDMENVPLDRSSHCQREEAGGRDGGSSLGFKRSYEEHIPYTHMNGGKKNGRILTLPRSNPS
UniProt P06213, 763-956 limits assumed: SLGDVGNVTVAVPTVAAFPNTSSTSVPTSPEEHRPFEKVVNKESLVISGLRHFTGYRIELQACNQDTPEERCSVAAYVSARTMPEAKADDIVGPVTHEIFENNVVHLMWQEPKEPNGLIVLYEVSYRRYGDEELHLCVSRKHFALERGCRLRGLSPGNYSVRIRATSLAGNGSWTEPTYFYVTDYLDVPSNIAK
UniProt P08069, 741-1367 limits assumed: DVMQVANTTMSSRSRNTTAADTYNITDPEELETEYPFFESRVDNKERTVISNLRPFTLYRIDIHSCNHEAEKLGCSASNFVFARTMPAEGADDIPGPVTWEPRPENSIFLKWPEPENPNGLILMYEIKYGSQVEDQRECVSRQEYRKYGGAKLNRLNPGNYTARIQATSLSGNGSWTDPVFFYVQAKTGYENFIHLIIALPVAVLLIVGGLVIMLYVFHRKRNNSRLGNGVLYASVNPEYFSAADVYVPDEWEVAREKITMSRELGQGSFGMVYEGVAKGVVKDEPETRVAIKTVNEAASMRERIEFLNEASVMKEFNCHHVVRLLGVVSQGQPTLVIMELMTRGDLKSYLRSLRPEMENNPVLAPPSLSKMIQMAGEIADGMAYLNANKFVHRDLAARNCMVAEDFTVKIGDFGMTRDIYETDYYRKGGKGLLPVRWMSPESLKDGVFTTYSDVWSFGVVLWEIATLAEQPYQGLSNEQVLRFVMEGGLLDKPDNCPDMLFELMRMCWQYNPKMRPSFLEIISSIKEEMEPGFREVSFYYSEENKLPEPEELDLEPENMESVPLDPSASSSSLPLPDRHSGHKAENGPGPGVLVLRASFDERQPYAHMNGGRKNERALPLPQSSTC
UniProt P08069, 31-736 limits assumed: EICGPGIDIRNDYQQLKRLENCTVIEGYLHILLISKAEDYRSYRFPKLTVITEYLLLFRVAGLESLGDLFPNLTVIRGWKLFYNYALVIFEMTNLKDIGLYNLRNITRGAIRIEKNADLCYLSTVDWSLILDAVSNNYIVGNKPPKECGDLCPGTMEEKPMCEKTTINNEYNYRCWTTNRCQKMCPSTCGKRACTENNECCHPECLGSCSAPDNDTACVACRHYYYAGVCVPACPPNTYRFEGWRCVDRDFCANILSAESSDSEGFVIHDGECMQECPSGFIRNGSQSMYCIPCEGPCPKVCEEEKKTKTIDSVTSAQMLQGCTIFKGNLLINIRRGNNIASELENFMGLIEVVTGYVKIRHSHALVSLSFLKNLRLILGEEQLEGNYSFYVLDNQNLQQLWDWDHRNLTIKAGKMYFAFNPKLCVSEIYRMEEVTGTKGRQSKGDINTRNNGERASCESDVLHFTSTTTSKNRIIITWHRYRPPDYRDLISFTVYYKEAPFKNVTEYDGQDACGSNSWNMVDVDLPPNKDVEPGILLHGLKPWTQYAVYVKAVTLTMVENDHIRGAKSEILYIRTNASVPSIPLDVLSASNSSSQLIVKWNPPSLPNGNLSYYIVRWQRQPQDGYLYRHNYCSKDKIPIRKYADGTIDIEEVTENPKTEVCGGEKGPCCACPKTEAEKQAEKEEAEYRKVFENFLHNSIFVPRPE
UniProt P08069, 741-935 limits assumed: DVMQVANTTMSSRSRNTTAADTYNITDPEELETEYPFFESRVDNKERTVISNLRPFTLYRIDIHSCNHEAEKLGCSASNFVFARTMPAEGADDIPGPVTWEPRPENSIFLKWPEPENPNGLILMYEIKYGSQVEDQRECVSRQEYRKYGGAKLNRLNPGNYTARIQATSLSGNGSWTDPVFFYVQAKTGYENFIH

[2] = molecular target: human IGF-1 receptor (HIGF-1R) (Homo sapiens, UniProt P08069); assay: 125I-IGF-1 competition binding assay on solubilised purified receptor; details: read-out: Kd (µM) HIGF1R
IR = molecular target: T2, IR (Homo sapiens, UniProt P06213); assay: Phage ELISA, competition of phage binding by soluble synthetic peptides, IR-coated wells; details: read-out: Kd (Hill plot); Insulin Receptor, 20D3 Phage
T2 construct: composed of the extracellular domains of both the α and β chains of the natural receptor; made in house; background b13 names human embryonic kidney 293 cells for the Bass et al. construct

IGF-1R = molecular target: T3, IGF-1R (Homo sapiens, UniProt P08069); assay: Phage ELISA, competition of phage binding by soluble synthetic peptides, IGF-1R-coated wells; details: read-out: Kd (Hill plot), IGF Receptor
T3 construct: Soluble IGF-1R was obtained from R&D Systems; purchased R&D Systems 391-GR/CF

FHENFYDWFVRQVSKK [Clone H2C]
Kd [1]: 0.7 µM
Kd [2]: 6.1 µM
Kd (IR): 0.564 µM
Kd (IGF-1R; 20D3 Phage): 5.05 µM
Kd (IGF-1R; H2 Phage): 3.72 µM
